Values joined by “and” are separate entries in the source; they are usually repeats but may differ in a detail not shown here. Identical values can stand only once.
Test system: sperm from regions of salmon testes
Test: Motility of sperm from regions of salmon testes after hormone treatment
Assay type: cell-based
Settings: for Motility after treatment (%): hCG at 100 IU/2 g testis
Protocol: The immature testicular regions A, B, and C are ground and diluted with an artificial seminal plasma. The grinding is performed by the following procedure. First, the testes are cut into small pieces with scissors such that the membranes surrounding the spermatids of the testes are peeled off. Thereafter, the exposed testicular regions A, B, and C are gently crushed with gloved hands. hCG is an abbreviation for human chorionic gonadotropin. The dilution is treated with hCG at a concentration of 25-200 IU/g to induce artificial sexual maturation of the testicular cells to sperm. Specifically, the dilution is treated with the predetermined amount of hCG under slow stirring with a low-speed impeller agitator. Here, care should be taken because a high speed of the impeller causes cell disruption, increasing the possibility that impurities may increase. Immature regions (except for regions D where semen leaks out, see FIG. 4) were collected by cutting the testes of male salmon. The motilities of sperm from testicular regions A and B were almost zero before treatment with hCG. The motility of sperm from testicular regions C was as low as 1% and the motility of sperm in the mature semen was 100%. After hCG treatment, the motility of sperm from testicular regions A was improved to around 3% whereas the motilities of sperm from testicular regions B and C were increased to 35% and 89%, respectively. […] Regions C of the testes of male salmon caught in a river in October were treated with three different types of hormones: hGC, luteinizing hormone-releasing hormone (LhRH), and DHP. When treated with LhRH and DHP, the motilities of sperm were as low as 5 and 4%, respectively. In contrast, the motility of sperm from the experimental group treated with hCG was as high as 80%, making it possible to produce semen with few impurities (Table 2). Regions C of the testes of male river salmon were diluted with a buffer solution and treated with different concentrations of hCG. The sperm motility was very low (2%) when regions C were untreated, increased steadily with increasing hCG concentration to 50 IU/g, and were ≥82% when treated with hCG at concentrations of 50-200 IU/g (Table 6). There were no differences in the motility of sperm from the untreated control even over time. The motility of sperm from the group treated with 25 IU/g testis increased to a maximum of 73% 1 h after treatment and was as high as 85% from 10 min after treatment. The motilities of sperm from the group treated with 50 IU/g testis were as high as ≥94% at 20-30 min after treatment. […] The motilities of sperm from the groups treated with 100 IU/g testis and 200 IU/g testis began to decrease from 30 min and 20 min after treatment, respectively. That is, the motilities of sperm from the groups treated with 50-200 IU/g testis decreased from when the treatment time exceeded 20 min (Table 7).

human chorionic gonadotropin [hCG]
Sperm motility (regions C of male river salmon, hCG at concentrations of 50-200 IU/g): ≥ 82%
Sperm motility (%) (regions C of testes of male salmon caught in a river in October, treated with different types of hormones): 80% and 80 ± 5.2%
Sperm motility (regions C, hCG 50 IU/g testis, at 20-30 min after treatment): ≥ 94%
Sperm motility (%) (regions C, river salmon 2 km upstream, October, hCG 25 IU/g testis, 20 min after treatment): 60 ± 8.5%
Sperm motility (%) (regions C, river salmon 2 km upstream, October, hCG 25 IU/g testis, 30 min after treatment): 70 ± 5.3%
Sperm motility (%) (regions C, river salmon 2 km upstream, October, hCG 25 IU/g testis, 60 min after treatment): 73% and 73 ± 6.7%
Sperm motility (%) (regions C, river salmon 2 km upstream, October, hCG 25 IU/g testis, 120 min after treatment): 65 ± 12.5%
Sperm motility (%) (regions C, river salmon 2 km upstream, October, hCG 50 IU/g testis, 10 min after treatment): 85 ± 6.1%
Sperm motility (%) (regions C, river salmon 2 km upstream, October, hCG 50 IU/g testis, 20 min after treatment): 94 ± 5.3%
Sperm motility (%) (regions C, river salmon 2 km upstream, October, hCG 50 IU/g testis, 30 min after treatment): 95 ± 7.3%
Sperm motility (%) (regions C, river salmon 2 km upstream, October, hCG 50 IU/g testis, 120 min after treatment): 32 ± 11.5%
Sperm motility (%) (regions C, river salmon 2 km upstream, October, hCG 100 IU/g testis, 10 min after treatment): 88 ± 3.9%
Sperm motility (%) (regions C, river salmon 2 km upstream, October, hCG 100 IU/g testis, 20 min after treatment): 92 ± 6.8%
Sperm motility (%) (regions C, river salmon 2 km upstream, October, hCG 100 IU/g testis, 30 min after treatment): 91 ± 5.5%
Sperm motility (%) (regions C, river salmon 2 km upstream, October, hCG 100 IU/g testis, 60 min after treatment): 73 ± 7.6%
Sperm motility (%) (regions C, river salmon 2 km upstream, October, hCG 100 IU/g testis, 120 min after treatment): 12 ± 5.1%
Sperm motility (%) (regions C, river salmon 2 km upstream, October, hCG 200 IU/g testis, 10 min after treatment): 82 ± 7.3% and 82 ± 4.4%
Sperm motility (%) (regions C, river salmon 2 km upstream, October, hCG 200 IU/g testis, 20 min after treatment): 95 ± 4.9%
Sperm motility (%) (regions C, river salmon 2 km upstream, October, hCG 200 IU/g testis, 30 min after treatment): 75 ± 7.6%
Sperm motility (%) (regions C, river salmon 2 km upstream, October, hCG 200 IU/g testis, 60 min after treatment): 52 ± 7.3%
Sperm motility (%) (regions C, river salmon 2 km upstream, October, hCG 200 IU/g testis, 120 min after treatment): 5 ± 7.3%
Sperm motility (%) (regions C, river salmon (2 km upstream from the estuary), after hCG treatment): 80 ± 5.2%
Sperm motility (%) (regions C, river salmon (2 km upstream) caught in December, after hCG treatment): 98 ± 3.8%
Sperm motility (%) (regions C, river salmon (2 km upstream) caught in November, after hCG treatment): 95 ± 4.8%
Sperm motility (%) (regions C, river salmon (2 km upstream) caught in October, after hCG treatment): 97 ± 2.9%
Sperm motility (%) (regions C, river salmon (2 km upstream) caught in September, after hCG treatment): 85 ± 11.3%
Sperm motility (%) (regions C, river salmon caught 1 km from the estuary, after hCG treatment): 85% and 85 ± 4.2%
Sperm motility (%) (regions C, river salmon caught 2 km from the estuary, after hCG treatment): 97% and 97 ± 2.7%
Sperm motility (%) (regions C, river salmon caught 3 km from the estuary, after hCG treatment): 98% and 98 ± 1.8%
Sperm motility (%) (regions C, river salmon caught at distance 0 from the estuary, after hCG treatment): 65% and 65 ± 8.9%
Motility after treatment (%) (testicular region B): 35% and 35 ± 5.6%
Motility after treatment (%) (testicular region C): 89% and 89 ± 7.2%
